Test results reported in patent publication US20250179059A1 (The Regents of the University of California, priority 2021, published 2025).

Legend:
[1] = biological target: human BRD4 bromodomain II (Homo sapiens, UniProt O60885); assay: Bromodomain binding assay (AlphaScreen), BRD4 BDII; settings: read-out: BRD4 BDII IC50, Table C2
Description: Bromodomain Binding Assay
The bromodomain binding assay utilizes AlphaScreen technology. Compounds compete with a biotinylated peptide ligand (from histone H4: aa 1-21, K5/K8/K12/K16Ac-biotin) for binding to a hexahistidine (His6)-tagged bromodomain. Peptide binding is detected by fluorescence signal after singlet oxygen energy transfer from peptide-bound AlphaScreen streptavidin-coated donor beads to His6-tagged bromodomain-bound nickel-chelate acceptor beads (PerkinElmer). Briefly, 8 μL 2.5× bromodomain (E. coli expressed, N-terminal His6-tagged human BRD4 bromodomain II [based on Genbank NM_058243, residues 349-460] or N-terminal His6-tagged human BRD4 bromodomain I [residues 44-170]) in reaction buffer (50 mM HEPES [pH 7.5], 100 mM NaCl, 0.05% CHAPS, 0.1% BSA, 1% DMSO) is added to wells of an assay plate (384-well low flange white, flat bottom, polystyrene microplate, Corning #3572; buffer only is added to some wells as a negative control). A compound concentration series (10 concentrations, 3-fold serial dilutions previously prepared in 100% DMSO, or 100% DMSO only negative control) is delivered to the assay plate with an Echo 550 acoustic liquid handler (Labcyte), followed by plate centrifugation and incubation for 30 minutes at room temperature. […] AlphaScreen signal (excitation/emission: 680 nm/520-620 nm) is detected with an EnSpire multimode plate reader (PerkinElmer). […]

[2] = tested on: human SKM-1 acute myeloid leukemia cells; assay: SKM-1 antiproliferation cell-based assay (ATPlite); settings: read-out: SKM-1 GI50; SKM-1 antiproliferation assay, 4 days, Table C2
Description: The cell-based assay indirectly measures cell density (and therefore proliferation and/or survival) by detecting total ATP concentration in a homogeneous format. Briefly, human SKM-1 acute myeloid leukemia cells (Leibniz Institute DSMZ #ACC 547) proliferating in log phase are collected by centrifugation, re-suspended in culture media (RPMI 1640/15% FBS/100 U/mL penicillin/100 μg/mL streptomycin) and diluted to 34722 cells/mL in media after counting. Then 180 μL cells are plated per well into a 96-well tissue-culture treated, clear bottom plate (Coming #3603). A 96-well compound plate (Corning #3357) is then generated by serial dilution of compounds into DMSO over nine concentrations and adding separate negative (DMSO) and positive control (reference compound) wells. Each compound concentration is tested in triplicate. First, 1 μL from each well of the compound plate is added to 99 μL culture media in an intermediate plate and mixed by pipetting. Then 20 μL of the diluted compounds in media are added to the assay plate containing the cells. The assay plate is maintained for 4 days in a standard cell culture incubator. At the end of the incubation period, 100 μL ATPlite Istep (PerkinElmer) is added to the assay plate wells, and the resulting luminescence is detected using an Infinite M1000 or a Spark multimode plate reader (Tecan). Data analysis is performed in Prism (GraphPad Software). […]

`CN(C)[C@H]1CCN(c2cc(-c3cc(F)cc(-c4ccc(-n5ccn(C)c5=O)c(Cl)c4)c3O)ccn2)C1` was tested, and the IC50 [1] was 1 to 10 nM and the GI50 [2] was 0.3 to 30 nM.
